Values of other authors, collected in patent US10550155B2, “Anticancer peptides” (priority 2018, dated 2020).

Assays:
Conditions in all cases: cited from earlier work
HepG2 cells = system: HepG2 cells
THP-1 monocytes = system: THP-1 monocytes
human erythrocytes = system: human erythrocytes
[1] = system: THP-1-derived macrophages
fibroblasts = system: fibroblasts

For [K^3] temporin-SHa, the “Cytotoxicity on HepG2 cells (literature)” value (HepG2 cells) is listed as “no cytotoxicity”, the “Cytotoxicity on THP-1 monocytes (literature)” value (THP-1 monocytes) is listed as “low cytotoxicity” and the “Cytotoxicity on human erythrocytes (literature)” value (human erythrocytes) is listed as “low cytotoxicity”. The “Cytotoxicity on THP-1-derived macrophages (literature)” value [1] was “low cytotoxicity” and the “Cytotoxicity on fibroblasts (literature)” value (fibroblasts) was “no cytotoxicity”.
